Experimental data taken from patent US20130164308A1 (RINAT NEUROSCIENCE, published 2013).
Where “and” joins values, the source holds several entries; their conditions need not be identical. Equal entries are not always repeated.

Amino acid sequences for entries named in this document (tags omitted). Residues count along the entry.
UniProt P09616, 27-319 limits assumed: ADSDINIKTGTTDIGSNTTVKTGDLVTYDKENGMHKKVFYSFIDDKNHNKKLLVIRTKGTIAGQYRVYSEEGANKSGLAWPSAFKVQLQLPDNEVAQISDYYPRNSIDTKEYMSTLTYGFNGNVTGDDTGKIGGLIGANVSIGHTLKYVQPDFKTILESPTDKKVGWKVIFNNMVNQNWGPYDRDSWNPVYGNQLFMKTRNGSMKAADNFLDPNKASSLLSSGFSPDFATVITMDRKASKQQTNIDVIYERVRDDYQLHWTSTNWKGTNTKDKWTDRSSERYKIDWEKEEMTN

B1: alpha-toxin antibody DF1 (IgG), germlined version of DF1.1 (antibody, V domains shown)
VH: QVQLVQSGAEVKKPGSSVKVSCKASGGTFNNVAINWVRQAPGQGLEWMGGIIPGLDTPNYAQKFQGRVTITADESTSTAYMELSSLRSEDTAVYYCAREMEVSGRWRPTEAFEIWGQGTLVTVSS
VL: EIVLTQSPGTLSLSPGERATLSCRASQTISNNFVAWYQQKPGQAPRLLIYGASTRATGIPDRFSGSGSGTDFTLTISRLEPEDFAVYYCQQYGSSPYTFGQGTKLEIKR
B2: alpha-toxin antibody DF2 (IgG) (antibody, V domains shown)
VH: QVQLVQSGAEVKKPGSSVKVSCKASGGTFNNVAINWVRQAPGQGLEWMGGIIPGLDTPNYAQKFQGRVTITADESTSTAYMELSSLRSEDTAVYYCAREVEVSGRWRPTEAFEIWGQGTLVTVSS
VL: EIVLTQSPGTLSLSPGERATLSCRASQTISNNFVAWYQQKPGQAPRLLIYGASTRATGIPDRFSGSGSGTDFTLTISRLEPEDFAVYYCQQYGSSPYTFGQGTKLEIKR

Molecular target: S. aureus alpha-toxin (Staphylococcus aureus, UniProt P09616)

| Binder | Kd |
| --- | --- |
| B1 | 0.58 nM and 0.59 nM and 0.76 nM |
| B2 | 0.15 nM and 0.21 nM |
